Measured values as given in ChEMBL document CHEMBL1275386, “Probing the active-site requirements of human intestinal N-terminal maltase-glucoamylase: Synthesis and enzyme inhibitory activities of a six-membered ring nitrogen analogue of kotalanol and its de-O-sulfonated derivative” (Bioorg Med Chem, 2010).

Protein sequences, listed by entry. Tags and fused reporters are not part of them. Lines headed by an entry give the natural chain unless they say otherwise; changes in a name come on top.
UniProt O43451: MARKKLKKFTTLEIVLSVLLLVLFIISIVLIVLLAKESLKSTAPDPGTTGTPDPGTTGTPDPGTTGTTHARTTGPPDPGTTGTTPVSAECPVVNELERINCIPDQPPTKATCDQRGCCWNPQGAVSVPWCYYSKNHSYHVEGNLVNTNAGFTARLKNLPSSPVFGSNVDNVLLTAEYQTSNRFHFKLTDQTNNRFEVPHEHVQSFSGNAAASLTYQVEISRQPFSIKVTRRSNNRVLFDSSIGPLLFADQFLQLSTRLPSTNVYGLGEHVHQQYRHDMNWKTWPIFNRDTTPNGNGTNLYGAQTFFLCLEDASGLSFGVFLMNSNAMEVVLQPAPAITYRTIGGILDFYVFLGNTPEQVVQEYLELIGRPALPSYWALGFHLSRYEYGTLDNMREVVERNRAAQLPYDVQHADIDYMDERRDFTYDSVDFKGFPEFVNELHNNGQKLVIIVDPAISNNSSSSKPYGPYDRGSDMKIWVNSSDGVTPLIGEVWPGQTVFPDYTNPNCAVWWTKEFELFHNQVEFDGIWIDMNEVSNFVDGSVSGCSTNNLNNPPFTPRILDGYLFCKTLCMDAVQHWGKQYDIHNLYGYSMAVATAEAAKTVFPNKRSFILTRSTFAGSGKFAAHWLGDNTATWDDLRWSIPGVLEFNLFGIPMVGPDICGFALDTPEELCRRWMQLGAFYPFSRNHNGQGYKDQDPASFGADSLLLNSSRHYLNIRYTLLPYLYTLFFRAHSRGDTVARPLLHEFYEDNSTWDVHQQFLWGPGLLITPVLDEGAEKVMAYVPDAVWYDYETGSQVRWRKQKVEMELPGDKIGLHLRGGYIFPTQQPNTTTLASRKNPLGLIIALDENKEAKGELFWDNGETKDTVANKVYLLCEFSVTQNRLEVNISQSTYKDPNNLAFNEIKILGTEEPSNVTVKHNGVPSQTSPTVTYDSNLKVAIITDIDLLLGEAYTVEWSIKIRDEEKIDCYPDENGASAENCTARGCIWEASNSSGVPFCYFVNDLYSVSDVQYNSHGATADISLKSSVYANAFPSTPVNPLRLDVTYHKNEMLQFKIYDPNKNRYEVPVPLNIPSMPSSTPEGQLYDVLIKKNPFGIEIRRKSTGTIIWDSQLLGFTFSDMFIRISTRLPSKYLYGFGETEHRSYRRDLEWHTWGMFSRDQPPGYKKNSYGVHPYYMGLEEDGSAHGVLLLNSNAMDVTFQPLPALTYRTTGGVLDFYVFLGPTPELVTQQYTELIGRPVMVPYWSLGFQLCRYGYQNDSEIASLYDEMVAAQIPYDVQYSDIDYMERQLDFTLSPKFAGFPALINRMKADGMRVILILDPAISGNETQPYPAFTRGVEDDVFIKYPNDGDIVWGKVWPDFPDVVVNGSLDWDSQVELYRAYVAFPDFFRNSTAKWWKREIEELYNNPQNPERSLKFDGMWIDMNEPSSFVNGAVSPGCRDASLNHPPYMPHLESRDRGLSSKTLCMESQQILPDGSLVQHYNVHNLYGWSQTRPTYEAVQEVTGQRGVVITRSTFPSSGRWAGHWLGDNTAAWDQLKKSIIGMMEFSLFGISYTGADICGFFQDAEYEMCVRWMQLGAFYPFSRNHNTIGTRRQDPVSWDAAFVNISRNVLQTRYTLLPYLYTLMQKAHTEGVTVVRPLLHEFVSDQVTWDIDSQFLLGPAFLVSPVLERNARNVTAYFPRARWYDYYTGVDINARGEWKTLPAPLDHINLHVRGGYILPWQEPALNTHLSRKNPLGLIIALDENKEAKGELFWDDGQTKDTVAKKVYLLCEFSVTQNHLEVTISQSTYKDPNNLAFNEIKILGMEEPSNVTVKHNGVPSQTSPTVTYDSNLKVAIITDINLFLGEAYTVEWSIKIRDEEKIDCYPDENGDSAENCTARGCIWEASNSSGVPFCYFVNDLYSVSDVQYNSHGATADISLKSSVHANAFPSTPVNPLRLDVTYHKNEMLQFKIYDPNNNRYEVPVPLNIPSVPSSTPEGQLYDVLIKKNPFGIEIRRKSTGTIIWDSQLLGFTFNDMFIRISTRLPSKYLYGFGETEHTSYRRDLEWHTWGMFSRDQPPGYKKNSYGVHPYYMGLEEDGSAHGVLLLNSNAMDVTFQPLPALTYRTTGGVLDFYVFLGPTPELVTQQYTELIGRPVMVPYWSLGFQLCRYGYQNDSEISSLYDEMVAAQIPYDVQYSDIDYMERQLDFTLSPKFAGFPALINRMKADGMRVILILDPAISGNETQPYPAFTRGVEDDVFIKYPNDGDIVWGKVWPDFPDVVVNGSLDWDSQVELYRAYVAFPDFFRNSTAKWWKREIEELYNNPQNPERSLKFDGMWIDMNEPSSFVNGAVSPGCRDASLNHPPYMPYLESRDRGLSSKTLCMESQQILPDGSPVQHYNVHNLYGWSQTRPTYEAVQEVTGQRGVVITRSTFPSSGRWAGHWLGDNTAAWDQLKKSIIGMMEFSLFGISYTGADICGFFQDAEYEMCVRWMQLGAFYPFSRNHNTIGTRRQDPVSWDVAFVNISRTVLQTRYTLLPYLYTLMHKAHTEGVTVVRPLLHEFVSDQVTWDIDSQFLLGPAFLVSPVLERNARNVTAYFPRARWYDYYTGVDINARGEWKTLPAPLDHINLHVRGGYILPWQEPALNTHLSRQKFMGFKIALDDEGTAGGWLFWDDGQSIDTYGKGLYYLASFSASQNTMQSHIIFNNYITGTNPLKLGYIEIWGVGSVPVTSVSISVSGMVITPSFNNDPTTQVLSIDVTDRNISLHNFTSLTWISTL

Target: Maltase-glucoamylase (Homo sapiens, UniProt O43451)
Assay: Inhibition of human recombinant N-terminal subunit of maltase-glucoamylase after 60 mins by glucose oxidase assay

`O=S(=O)([O-])O[C@@H]([C@H](O)[C@H](O)[C@@H](O)CO)[C@H](O)C[Se+]1C[C@@H](O)[C@H](O)[C@H]1CO` (stereo partly specified) gave a Ki of 80 nM.
